Laboratory results reported in US20260382588A1, “COMPOUNDS CONTAINING A HYDROXYPHENYL MOIETY AND THEIR USE” (published 2026).

test system: PERK and ATF6; assay: Expression of downstream effectors of PERK and ATF6 (Chop, Herpud1 mRNA); conditions: data not shown
Procedure: Quantitative real-time PCR—Total RNA was prepared using TRIzol reagent (Invitrogen, Carlsbad, CA, USA). All RNAs were reverse-transcribed with Maxima Reverse Transcriptase (Thermo Scientific, Waltham, MA, USA), according to manufacturer protocol. qPCR was performed via a StepOnePlus™ Real-Time PCR Systems from Applied Biosystems and the SYBR Green PCR Core reagents kit (Takara). Analysis was carried out using QuantStudio™ Design and Analysis software version 1.3.1. Three technical repeats were performed per experiment and at least three biological repeats were performed per point per experiment. Each sample was extract individually for RNA and performed the quantification of mRNA levels by qPCR for several targets.
The effect of compounds 28 (Z4P) and 33 (Z4) on RIDD was then tested by interrogating the levels of the known RIDD target Sparc mRNA (46) in U87 cells upon treatment with the transcriptional blocker actinomycin D and the ER stressor tunicamycin. Both compound 33 (Z4) and 28 (Z4P) blocked tunicamycin-induced degradation of Sparc mRNA compared to control treatment (FIG. 2C) whilst had no effect on Sparc mRNA in cells overexpressing a dominant negative (DN) form of IRE1 (data not shown). The specificity of these compounds in the context of the other arms of the UPR, PERK in particular, was then investigated. This was done to ensure that the stress responses related to compounds 28 (Z4P) and 33 (Z4) were wholly due to their action on IRE1 rather than other UPR transducers. The expression of downstream effectors of PERK and ATF6 was evaluated. […] This was also confirmed at the level of eIF2α phosphorylation and ATF4 protein expression which were not altered upon exposure to compound 33 (Z4) (data not shown). […] Consequently, to further document the characteristics of compound 33 (Z4) at the protein level, U251 (commonly available GB cell line) and RADH87 (G. Auf et al., Proc Natl Acad Sci USA, 2010, 107, 15553-15558) (human tumor-derived primary GB cell line) cells were treated and their proteome were evaluated. Treatment of U251 and RADH87 cells with compound 33 (Z4) impacted on particular pathways such as cell adhesion, circulatory system development, cell locomotion and cell migration; all properties involved in tumor establishment (e.g. angiogenesis) and tumor invasion (e.g. metastasis) (data not shown). The proteomes of these GB lines exposed to compound 33 (Z4) was then functionally compared to those of the same cell lines in which IRE1 activity was invalidated genetically either using a dominant negative construct reported previously (B. Drogat, et al., Cancer Res., 2007, 67, 6700-6707) or a truncated mutant variant of IRE1 lacking an RNase domain (Q780stop) (S. Lhomond, et al., EMBO Molecular Medicine, 2018, 10, e7929) (data not shown). […] Proteome alterations upon compound 33 (Z4) exposure phenocopied those observed in cells in which IRE1 activity was genetically blunted, thus reinforcing the selectivity of compound 33 (Z4) towards IRE1 (data not shown). Having extensively documented the effect and specificity of Z4-compounds on IRE1, it was then tested whether compounds 28 (Z4P), 33 (Z4), 34 (Z4A), 35 (Z4B), 36 (Z4C), 37 (Z4D) and 38 (Z4E) could sensitize GB cells to the standard of care chemotherapy, TMZ. Cell viability assays were carried out on U87 cells treated with sub-toxic doses of compound 33 (Z4) and compound 28 (Z4P) (data not shown) and escalating doses of TMZ.

Compound | Chop mRNA | Herpud1 mRNA
Cc1ccc(C(N)=O)cc1NC(=O)NC(C)CCc1ccc(O)cc1 (racemic) | Neither Chop nor Herpud1 mRNA were significantly affected | Neither Chop nor Herpud1 mRNA were significantly affected

same assay, conditions: other UPR branches (PERK, ATF6)

Compound | impact on the other UPR branches
CC(CCc1ccc(O)cc1)NC(=O)C(=O)Nc1cc(C(N)=O)ccc1F (stereo not drawn) | did not significantly impact the other UPR branches
Cc1ccc(C)c(NC(=O)NC(C)CCc2ccc(O)cc2)c1 (racemic) | did not significantly impact the other UPR branches
Cc1ccc(C(N)=O)cc1NC(=O)NC(C)CCc1ccc(O)cc1 (racemic) | did not significantly impact the other UPR branches
CNC(=O)c1ccc(C)c(NC(=O)NC(C)CCc2ccc(O)cc2)c1 (stereo not drawn) | did not significantly impact the other UPR branches
CCNC(=O)c1ccc(C)c(NC(=O)NC(C)CCc2ccc(O)cc2)c1 (stereo not drawn) | did not significantly impact the other UPR branches
Cc1ccc(C(=O)NC2CC2)cc1NC(=O)NC(C)CCc1ccc(O)cc1 (stereo not drawn) | did not significantly impact the other UPR branches
CC(CCc1ccc(O)cc1)NC(=O)Nc1cc(C(N)=O)ccc1F (stereo not drawn) | did not significantly impact the other UPR branches
